Assay results from PMC10088926, “Synthesis, DFT calculations, and anti-proliferative evaluation of pyrimidine and selenadiazolopyrimidine derivatives as dual Topoisomerase II and HSP90 inhibitors” (Journal of Enzyme Inhibition and Medicinal Chemistry, 2023).

By UniProt entry, the sequences of proteins in these tests, tags left out. Where a name states a change or a piece, a line headed by the entry shows the natural chain unless it says otherwise.
UniProt P11388: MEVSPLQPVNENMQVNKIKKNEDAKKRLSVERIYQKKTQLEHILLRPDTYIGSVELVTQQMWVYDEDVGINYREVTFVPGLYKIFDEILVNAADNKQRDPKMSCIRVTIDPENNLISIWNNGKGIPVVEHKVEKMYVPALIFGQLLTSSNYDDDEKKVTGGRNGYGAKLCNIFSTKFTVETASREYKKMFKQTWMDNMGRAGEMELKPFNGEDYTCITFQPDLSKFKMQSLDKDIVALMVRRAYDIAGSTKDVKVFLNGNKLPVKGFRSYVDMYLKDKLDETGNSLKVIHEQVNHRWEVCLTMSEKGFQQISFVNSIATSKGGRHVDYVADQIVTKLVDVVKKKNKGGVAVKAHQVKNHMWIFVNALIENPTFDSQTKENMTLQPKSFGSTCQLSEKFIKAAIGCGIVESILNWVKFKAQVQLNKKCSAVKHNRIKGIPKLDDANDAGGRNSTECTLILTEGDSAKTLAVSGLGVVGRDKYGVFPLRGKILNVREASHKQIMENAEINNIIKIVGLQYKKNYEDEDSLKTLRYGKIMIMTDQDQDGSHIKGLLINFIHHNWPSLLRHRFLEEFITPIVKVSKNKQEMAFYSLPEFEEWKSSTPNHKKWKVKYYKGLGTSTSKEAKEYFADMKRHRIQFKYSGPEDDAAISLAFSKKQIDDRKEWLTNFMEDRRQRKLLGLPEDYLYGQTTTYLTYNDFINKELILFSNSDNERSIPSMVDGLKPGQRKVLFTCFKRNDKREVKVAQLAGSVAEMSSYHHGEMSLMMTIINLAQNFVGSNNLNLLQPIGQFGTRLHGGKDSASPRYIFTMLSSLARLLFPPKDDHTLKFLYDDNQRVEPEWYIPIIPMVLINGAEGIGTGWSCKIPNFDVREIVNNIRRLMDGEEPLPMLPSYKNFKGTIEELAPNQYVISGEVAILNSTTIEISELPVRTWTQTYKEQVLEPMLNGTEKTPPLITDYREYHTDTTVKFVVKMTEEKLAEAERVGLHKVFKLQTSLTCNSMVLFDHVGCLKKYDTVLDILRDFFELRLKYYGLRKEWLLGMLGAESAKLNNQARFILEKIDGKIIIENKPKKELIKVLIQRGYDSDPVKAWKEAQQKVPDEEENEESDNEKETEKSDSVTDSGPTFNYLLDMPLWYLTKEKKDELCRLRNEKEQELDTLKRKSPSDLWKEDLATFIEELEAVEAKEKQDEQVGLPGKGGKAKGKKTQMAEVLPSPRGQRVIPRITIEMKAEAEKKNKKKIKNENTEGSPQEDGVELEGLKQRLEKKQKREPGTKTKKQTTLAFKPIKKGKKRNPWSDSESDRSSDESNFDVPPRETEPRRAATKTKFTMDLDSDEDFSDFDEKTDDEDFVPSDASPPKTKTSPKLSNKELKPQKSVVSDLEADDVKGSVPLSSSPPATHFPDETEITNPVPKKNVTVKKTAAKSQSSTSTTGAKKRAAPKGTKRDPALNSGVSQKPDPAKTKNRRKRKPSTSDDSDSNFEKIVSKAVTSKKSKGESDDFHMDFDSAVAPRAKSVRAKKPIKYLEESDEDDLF

Target: T1, Topoisomerase II (Homo sapiens, UniProt P11388)
T1 construct: purchased
Experiment: In vitro Topoisomerase II enzyme inhibition assay (plasmid-based kit)
Assay type: biochemical
Details: read-out: Topoisomerase II IC50 (mean ± SD)
Experimental: In vitro enzyme inhibitory assay of compounds 3a and 5d was performed against Topoisomerase-II enzyme using Topoisomerase II Assay Kit (plasmid-based)[34] and HSP90 enzyme using HSP90 (C-Terminal) Inhibitor Screening Assay Kit[35]. The procedure of the used kits was done according to the manufacturer’s instructions.
Topoisomerase II inhibitors can cause DNA damage and halt the cell cycle.

## COc1cccc2c1C(=O)c1c(O)c3c(c(O)c1C2=O)C[C@@](O)(C(=O)CO)C[C@@H]3O[C@H]1C[C@H](N)[C@H](O)[C@H](C)O1 [Doxorubicin, reference compound]
  IC50: 3.45 ± 0.21 µM
